By UniProt entry, the sequences of proteins in these tests, tags left out.
UniProt P21554, whole entry: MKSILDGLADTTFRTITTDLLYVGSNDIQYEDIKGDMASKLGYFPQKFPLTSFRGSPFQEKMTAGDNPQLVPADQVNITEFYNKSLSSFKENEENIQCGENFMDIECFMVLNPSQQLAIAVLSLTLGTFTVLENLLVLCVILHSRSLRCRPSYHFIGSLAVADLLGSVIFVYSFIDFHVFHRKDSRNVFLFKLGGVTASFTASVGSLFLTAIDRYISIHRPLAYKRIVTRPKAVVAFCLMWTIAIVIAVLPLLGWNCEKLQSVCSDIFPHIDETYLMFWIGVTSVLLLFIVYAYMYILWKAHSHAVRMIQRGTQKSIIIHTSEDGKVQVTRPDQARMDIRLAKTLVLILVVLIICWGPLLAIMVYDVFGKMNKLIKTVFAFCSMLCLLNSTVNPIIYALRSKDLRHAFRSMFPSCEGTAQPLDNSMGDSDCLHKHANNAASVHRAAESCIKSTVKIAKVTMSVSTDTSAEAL

According to ChEMBL document CHEMBL4325918, “Allosteric CB1 Receptor Modulators for the Treatment of CB1 Related Diseases and Conditions” (ACS Med Chem Lett, 2018):

How the values were obtained:
Cannabinoid receptor 1 = Cannabinoid receptor 1 (Homo sapiens, UniProt P21554); assay: Allosteric modulation of CB1 receptor (unknown origin) assessed as inhibition of CP55940-induced [35S]GTPgammaS binding; type: functional
[1] = Clearance in Sprague-Dawley rat; type: ADME; conditions: in vivo

O=C(Nc1ccc(Cl)cc1)Nc1cccc(-c2cccc(N3CCCC3)n2)c1
IC50 (Cannabinoid receptor 1): 102 nM

O=C(Nc1ccc(Cl)cc1)Nc1cccc(-c2ccc(F)cc2)c1
CL [1]: < 4.6 µL/min/mg
